Assay results from US20240197735A1, “METHODS AND COMPOSITIONS COMPRISING A BRAF INHIBITOR AND A PD-1 BINDING ANTAGONIST” (Hoffmann-La Roche Inc., priority 2021, published 2024).

Test system: P-ERK in HCT116 cells expressing WT BRAF
Assay: HTRF assay for P-ERK determination in HCT116 cells (paradoxical BRAF activation)
Type: cell-based
Conditions: HCT-116 cells; maximum P-ERK signal as percentage of highest dabrafenib signal within dose range tested
Description: A375 is a cellular cancer model expressing V600E mutated BRAF and HCT116 a cellular cancer model expressing WT BRAF. First generation BRAF inhibitors such as e.g. dabrafenib induce a paradox effect on tumour cells in that they inhibit the growth of V600E mutated BRAF cells (such as e.g. A375), while they activate growth in WT BRAF cells (such as e.g. HCT 116). ERK 1,2 phosphorylation (terminal member of the phosphorylation cascade of the MAPK pathway) is hereafter reported as main readout for the activation status of the MAPK pathway. Prior to the assay, A375 and HCT116 cell lines are maintained in DMEM no-phenol red medium supplemented with 10% fetal bovine serum (FBS). Following compound treatment, P-ERK levels are determined by measuring FRET fluorescence signal induced by selective binding of 2 antibodies provided in the mentioned kit (Cisbio cat #64AERPEH) on ERK protein when phosphorylated at Thr202/Tyr204. […]
The plate is then analyzed and fluorescence emission value collected through a Pherastast FSX (BMG Labtech) apparatus at […].
The obtained fluorescence values are processed according to the formula Ratio=[…]*10000 then the average of the ratio on the blank is subtracted to all values. […]

CCCS(=O)(=O)Nc1ccc(F)c(Oc2ccc3ncn(C)c(=O)c3c2)c1C#N [AR-25]
Percentage of Maximum paradox inducing effect from dabrafenib: 103%
